Molecules are shown by their SMILES.

The chains behind the UniProt entries cited, without tags or fusion partners. Residues count along the entry.
UniProt P12821, 30-1306: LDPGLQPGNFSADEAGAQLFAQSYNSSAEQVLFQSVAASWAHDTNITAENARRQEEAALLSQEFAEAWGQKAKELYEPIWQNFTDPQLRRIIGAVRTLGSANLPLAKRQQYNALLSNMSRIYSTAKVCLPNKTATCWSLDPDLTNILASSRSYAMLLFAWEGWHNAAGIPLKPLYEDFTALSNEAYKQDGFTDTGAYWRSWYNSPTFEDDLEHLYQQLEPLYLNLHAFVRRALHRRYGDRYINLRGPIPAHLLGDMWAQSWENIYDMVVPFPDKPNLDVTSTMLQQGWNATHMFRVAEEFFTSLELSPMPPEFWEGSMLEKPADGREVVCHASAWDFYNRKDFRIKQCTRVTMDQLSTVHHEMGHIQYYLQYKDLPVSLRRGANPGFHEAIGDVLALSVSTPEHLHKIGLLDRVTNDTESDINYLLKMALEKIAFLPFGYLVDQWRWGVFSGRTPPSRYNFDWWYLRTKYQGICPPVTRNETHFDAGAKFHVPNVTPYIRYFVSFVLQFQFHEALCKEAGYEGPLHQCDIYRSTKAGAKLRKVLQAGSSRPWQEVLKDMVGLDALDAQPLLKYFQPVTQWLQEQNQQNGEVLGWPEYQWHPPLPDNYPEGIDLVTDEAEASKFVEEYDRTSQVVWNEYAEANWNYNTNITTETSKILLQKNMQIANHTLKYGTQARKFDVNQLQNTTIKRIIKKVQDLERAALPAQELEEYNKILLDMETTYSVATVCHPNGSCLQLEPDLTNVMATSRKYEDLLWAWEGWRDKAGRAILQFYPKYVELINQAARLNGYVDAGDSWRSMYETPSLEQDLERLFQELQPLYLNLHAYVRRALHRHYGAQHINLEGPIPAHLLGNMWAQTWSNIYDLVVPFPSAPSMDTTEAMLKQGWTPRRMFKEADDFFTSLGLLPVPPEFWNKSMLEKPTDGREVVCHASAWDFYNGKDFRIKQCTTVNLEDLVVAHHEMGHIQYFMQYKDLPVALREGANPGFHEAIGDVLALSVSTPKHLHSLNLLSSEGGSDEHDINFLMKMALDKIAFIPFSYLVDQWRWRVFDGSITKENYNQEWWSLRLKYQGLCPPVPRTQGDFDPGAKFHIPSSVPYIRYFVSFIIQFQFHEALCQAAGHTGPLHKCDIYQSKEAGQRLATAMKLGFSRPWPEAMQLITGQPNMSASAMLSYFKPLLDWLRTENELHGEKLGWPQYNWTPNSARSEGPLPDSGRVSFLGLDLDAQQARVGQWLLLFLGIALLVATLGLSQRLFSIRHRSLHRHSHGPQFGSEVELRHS

The assay has as its target angiotensin-converting enzyme (ACE) (Homo sapiens, UniProt P12821). The experiment in a line: Population pharmacokinetic/pharmacodynamic Imax model with effect compartment: effect of enalaprilat on angiotensin II/angiotensin I ratio in healthy adults. It counts as in vivo. Also noted: the angiotensin II/angiotensin I ratio can also serve as a measure of in vivo ACE activity in children with heart failure; from tissue; host or cells: in vivo in human subjects; ACE activity read indirectly from the plasma angiotensin II/angiotensin I ratio. The settings on record: population estimate. On the procedure:
The adult data used were obtained from an open-label, single-sequence, single-dose study in nine healthy subjects. The enalaprilat, angiotensin I, and angiotensin II measurements from this study were analyzed. The study was conducted in 2013 at the Institute of Clinical Pharmacy and Pharmacotherapy at Heinrich Heine University Düsseldorf in Germany according to the Declaration of Helsinki and Good Clinical Practice recommendations. The Ethics Committee of the Medical Faculty of the Heinrich Heine University Düsseldorf granted the ethical approval (proposal no. 3809 [including all amendments]). The study was registered in the German Clinical Trials Register (DRKS00037310). Prior to participation, all subjects provided written informed consent.
After a fasting period of at least 10 h, one tablet of 20 mg enalapril maleate (EnaHEXAL®, HEXAL, Holzkirchen, Germany) was administered to the subjects with 250 mL of water. The intake of xanthine-containing food or beverages and alcohol was prohibited for at least 48 h after administration.
The time points for pharmacodynamic sampling were predose, 0.5, 1, 2, 3, 4, 5, 6, 7, 8, 24, 48, and 72 h after administration.
The calibration range of angiotensin II was between 1 and 125 pg/mL. Further information regarding the analytical methods can be found elsewhere. […]

For `C[C@H](N[C@@H](CCc1ccccc1)C(=O)O)C(=O)N1CCC[C@H]1C(=O)O` [enalaprilat], the “ke0, effect compartment transfer rate constant” value was 0.48 h⁻¹. In addition, the “γ, sigmoidicity factor” value (Imax model with full inhibition) is reported as 2.02.

(Values after paper PMC12567347, “Angiotensin II/Angiotensin I Ratio as a New Pharmacodynamic Parameter for Population Modelling in Healthy Adults and Children with Heart Failure Treated with Enalapril” (Pharmaceutics, 2025).)
